# Reference: patent US6930118B2, “3-Oxadiazol-5-yl-1-aminoalkyl-1h-indole derivatives” (Amrad Operations Pty. Ltd., priority 2001, dated 2005)
# The chains behind the UniProt entries cited, without tags or fusion partners.
# UniProt P47746, whole entry: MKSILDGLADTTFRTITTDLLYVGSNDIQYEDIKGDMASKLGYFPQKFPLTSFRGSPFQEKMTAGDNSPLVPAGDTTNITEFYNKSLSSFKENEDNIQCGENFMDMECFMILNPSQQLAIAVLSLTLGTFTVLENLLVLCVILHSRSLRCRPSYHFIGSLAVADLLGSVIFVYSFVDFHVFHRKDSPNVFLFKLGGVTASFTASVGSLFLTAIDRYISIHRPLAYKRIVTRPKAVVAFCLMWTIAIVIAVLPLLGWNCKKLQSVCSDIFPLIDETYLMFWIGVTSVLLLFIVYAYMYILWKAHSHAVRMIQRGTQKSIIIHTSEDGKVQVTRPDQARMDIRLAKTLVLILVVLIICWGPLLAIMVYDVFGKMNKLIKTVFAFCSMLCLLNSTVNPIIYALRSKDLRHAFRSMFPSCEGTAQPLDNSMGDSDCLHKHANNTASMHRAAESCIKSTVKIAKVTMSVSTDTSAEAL
# Target: T1, CB1 receptor (Mus musculus, UniProt P47746)
# T1 construct: Mouse vasa deferentia were dissected with capsular connective tissue intact and set up in 20 ml organ baths; from tissue; host or cells: mouse (Swiss white) isolated vas deferens
# Experiment: Mouse electrically-stimulated isolated vas deferens bioassay (MVD)
# Assay type: cell-based
# Settings: decrease of electrically evoked twitch force
# Experimental: Functional activity of the compounds was assayed using the mouse electrically-stimulated vas deferens bioassay, a measure of CB1 receptor function (24,25). Compounds showing appreciable activity in this assay and the ability to be antagonised by the CB1-selective antagonist, SR141716A, were deemed to be CB1 agonists. The remaining compounds were classed as cannabinoid ligands. CB2 functionality may be investigated using assays known to those skilled in the art; for example those described in U.S. Pat. No. 6,013,648.
# Swiss white mice (35-40 g) were killed by exposure to 80% CO2 in O2 and exsanguination. Mouse vasa deferentia were dissected with capsular connective tissue intact and set up in 20 ml organ baths at 37° C. in Mg^2+-free physiological salt solution. […] Output from the transducer amplifier was recorded on a flat bed recorder (Gould BS 272, Cleveland, Ohio, U.S.A.). All drugs were dissolved in dimethyl sulfoxide (DMSO; Sigma, St Louis, Mo., U.S.A.) and allowed to equilibrate with the tissue for 30 min before the responses to field stimulation were assessed. Drug effects were measured as the percentage decrease of the pre-drug twitch force. In experiments where only a single drug concentration was tested, the resulting effect was expressed as a percentage of that observed in the presence of vehicle.
compound,measurement,value
"CCCCCc1cc(O)c2c(c1)OC(C)(C)[C@@H]1CCC(C)=C[C@@H]21 [THC, reference compound]",CB1 (MVD) % inh at 1.0 μM,100%
